Activity calls are given as the source filed them.
Tests used:
Format in all cases: functional, cell-based
[1] = molecular target: 5-hydroxytryptamine receptor 2C (Homo sapiens, UniProt P28335); experiment: Agonist activity at human 5HT2C receptor expressed in HEK293 cells assessed as calcium flux at 10 uM measured every sec for 3 mins by FLIPR assay
[2] = molecular target: 5-hydroxytryptamine receptor 2A (Homo sapiens, UniProt P28223); experiment: Agonist activity at human 5HT2A receptor expressed in HEK293 cells assessed as calcium flux at 10 uM measured every sec for 3 mins by FLIPR assay
[3] = molecular target: 5-hydroxytryptamine receptor 2B (Homo sapiens, UniProt P41595); experiment: Agonist activity at human 5HT2B receptor expressed in HEK293 cells assessed as calcium flux at 10 uM measured every sec for 3 mins by FLIPR assay

Sequences of proteins named here, by UniProt entry; tags and fusion partners are left off. A change or cut given only in a name is not applied to a line headed by its entry.
UniProt P28335: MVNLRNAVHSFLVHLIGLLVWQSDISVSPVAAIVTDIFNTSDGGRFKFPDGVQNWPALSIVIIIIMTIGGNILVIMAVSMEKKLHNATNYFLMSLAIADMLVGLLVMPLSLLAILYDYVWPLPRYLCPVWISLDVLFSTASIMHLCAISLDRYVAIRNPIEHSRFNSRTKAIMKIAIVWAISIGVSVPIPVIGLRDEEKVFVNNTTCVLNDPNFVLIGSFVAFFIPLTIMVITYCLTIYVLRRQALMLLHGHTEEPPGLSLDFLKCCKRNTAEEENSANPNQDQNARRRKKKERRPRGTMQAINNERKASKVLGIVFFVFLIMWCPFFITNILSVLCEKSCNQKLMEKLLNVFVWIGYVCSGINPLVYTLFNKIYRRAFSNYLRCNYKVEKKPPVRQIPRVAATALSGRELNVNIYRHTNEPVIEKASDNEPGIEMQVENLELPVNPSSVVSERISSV
UniProt P28223, whole entry: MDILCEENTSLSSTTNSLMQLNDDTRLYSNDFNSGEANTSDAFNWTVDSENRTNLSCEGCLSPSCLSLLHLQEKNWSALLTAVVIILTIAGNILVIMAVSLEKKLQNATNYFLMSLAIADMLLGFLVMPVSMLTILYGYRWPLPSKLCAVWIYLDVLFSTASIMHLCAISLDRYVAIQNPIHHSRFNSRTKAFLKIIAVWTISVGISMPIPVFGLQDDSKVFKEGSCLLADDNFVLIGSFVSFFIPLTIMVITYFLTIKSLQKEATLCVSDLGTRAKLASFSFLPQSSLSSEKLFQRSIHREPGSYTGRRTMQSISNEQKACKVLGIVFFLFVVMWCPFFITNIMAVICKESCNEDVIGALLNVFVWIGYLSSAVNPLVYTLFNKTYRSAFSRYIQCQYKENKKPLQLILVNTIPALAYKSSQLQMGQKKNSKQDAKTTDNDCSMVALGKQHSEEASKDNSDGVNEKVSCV
UniProt P41595, whole entry: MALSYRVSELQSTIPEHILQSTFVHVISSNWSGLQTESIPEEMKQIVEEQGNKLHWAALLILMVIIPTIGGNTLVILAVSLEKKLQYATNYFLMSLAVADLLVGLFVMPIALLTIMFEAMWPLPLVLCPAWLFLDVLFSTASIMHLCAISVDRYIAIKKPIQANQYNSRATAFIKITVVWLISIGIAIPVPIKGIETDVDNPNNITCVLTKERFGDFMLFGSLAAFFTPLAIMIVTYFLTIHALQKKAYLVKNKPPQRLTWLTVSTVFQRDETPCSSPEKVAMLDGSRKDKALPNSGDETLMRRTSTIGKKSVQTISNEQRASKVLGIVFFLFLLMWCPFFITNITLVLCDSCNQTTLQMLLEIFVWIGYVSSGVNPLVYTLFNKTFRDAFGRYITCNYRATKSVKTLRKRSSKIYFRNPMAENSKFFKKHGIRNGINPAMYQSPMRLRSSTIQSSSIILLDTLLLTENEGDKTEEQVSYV

Measured: Activity

CCCCOc1ccc(C)cc1[C@H]1C[C@@H]1CN.Cl (racemic)
inactive: [1] | [2] | [3]

Reference: ChEMBL document CHEMBL2021856 (ACS Med Chem Lett, 2011)
